Read-outs that look alike come from different tables or passages of the source.
Legend:
[1] = Stability test of radiopharmaceuticals in a physiological saline (purity by TLC); format: physicochemical; details: room temperature, mean of 3 experiments
Experimental: (§1) The stability of radiopharmaceuticals was expressed as the purity of radiopharmaceutical at a given time, and measured after 0, 2, 4 and 6 hrs in a physiological saline and the human plasma, respectively. […] After well stirring the ingredients in each vial, the stability was measured at given times at room temperature.
(§2) The stability was measured as follows. 5 μl of each radiopharmaceutical was deposited in the lower part of TLC and was developed using methyl ethyl ketone (or acetone) and 0.9% physiological saline, respectively. Upon completion of development, each TLC was equally divided into 2 parts and the radioactivity of each part was measured using gamma counter. The stability was calculated by measurement of the purity from the obtained radioactivity. […] The purity of radiopharmaceuticals is calculated as follows.
(§3) 100%−[(radioactivity in the upper part of TLC developed with acetone÷radioactivity in the whole TLC developed with acetone)+(radioactivity in the lower part of TLC developed with 0.9% physiological saline÷radioactivity in the whole TLC developed with 0.9% physiological saline)]×100%

[2] = Stability test of radiopharmaceuticals in the human plasma (purity by TLC); details: room temperature, mean of 3 experiments
Experimental: as §1, §2, §3

[3] = system: VX-2 tumor cells; details: for Normal region counts / Tumor counts: 1.5 mCi i.v.; for Tumor uptake/normal region uptake ratio: Mean ± S.D. from 3 experiments
[4] = system: VX-2 tumor cells; details: for Uptake rate of radiopharmaceutical: 3 hours after injection, Mean ± S.D. from 3 experiments
[5] = anterior image, 1 hour after injection
[6] = anterior image, 3 hours after injection
[7] = posterior image, 1 hour after injection
[8] = posterior image, 3 hours after injection

| Substance | Purity of radiopharmaceuticals at given times ([1]; 0 h) [%] | Purity of radiopharmaceuticals at given times ([1]; 2 h) [%] | Purity of radiopharmaceuticals at given times ([1]; 4 h) [%] | Purity of radiopharmaceuticals at given times ([1]; 6 h) [%] | Purity of radiopharmaceuticals at given times ([2]; 0 h) [%] | Purity of radiopharmaceuticals at given times ([2]; 2 h) [%] | Purity of radiopharmaceuticals at given times ([2]; 4 h) [%] | Purity of radiopharmaceuticals at given times ([2]; 6 h) [%] | Tumor/Normal ratio [3, 5] | Normal region counts [3, 5] [counts] | Tumor counts [3, 5] [counts] | Tumor uptake/normal region uptake ratio ([3]; anterior image, 1 hour) | Tumor/Normal ratio [3, 6] | Normal region counts [3, 6] [counts] | Tumor counts [3, 6] [counts] | Tumor uptake/normal region uptake ratio ([3]; anterior image, 3 hours) | Tumor/Normal ratio [3, 7] | Normal region counts [3, 7] [counts] | Tumor counts [3, 7] [counts] | Tumor/Normal ratio [3, 8] | other results |
| --- | --- | --- | --- | --- | --- | --- | --- | --- | --- | --- | --- | --- | --- | --- | --- | --- | --- | --- | --- | --- | --- |
| 99mTc-5-thio-D-glucose [^99mTc-5-thio-D-glucose] | 99.8 | 98.7 | 98.2 | 98.0 | 99.8 | 98.2 | 95.1 | 90.0 | 2.0 | 600 | 1208 | 2.55 ± 0.71 | 2.2 | 478 | 1037 | 3.12 ± 0.67 | 2.5 | 613 | 1538 | 2.9 | Normal region counts [3, 8]: 436 counts; Tumor counts [3, 8]: 1283 counts |
| ^99mTc-1-thio-D-glucose | 99.5 | 99.6 | 98.6 | 98.1 | 99.5 | 98.0 | 95.4 | 92.0 | 4.0 | 1762 | 7133 | 3.32 ± 0.79 | 6.2 | 888 | 5499 | 3.82 ± 1.24 | 4.1 | 2142 | 8876 | 6.1 | absorption into tumor seen in gamma camera images (FIG. 1) ([3]; images at 1 and 3 hours after injection, in words): a large amount; Normal region counts [3, 8]: 1172 counts; Tumor counts [3, 8]: 7194 counts; Uptake rate of radiopharmaceutical ([4]; Blood): 0.099 ± 0.035 % ID/g; Uptake rate of radiopharmaceutical ([4]; Bone): 0.019 ± 0.015 % ID/g; Uptake rate of radiopharmaceutical ([4]; Heart): 0.120 ± 0.038 % ID/g; Uptake rate of radiopharmaceutical ([4]; Kidney): 6.225 ± 1.619 % ID/g; Uptake rate of radiopharmaceutical ([4]; Liver): 0.330 ± 0.138 % ID/g; Uptake rate of radiopharmaceutical ([4]; Lung): 0.182 ± 0.072 % ID/g; Uptake rate of radiopharmaceutical ([4]; Normal (left thigh muscle)): 0.026 ± 0.018 % ID/g; Uptake rate of radiopharmaceutical ([4]; Small intestine): 0.125 ± 0.039 % ID/g; Uptake rate of radiopharmaceutical ([4]; Spleen): 0.145 ± 0.065 % ID/g; Uptake rate of radiopharmaceutical ([4]; Stomach): 0.109 ± 0.051 % ID/g; Uptake rate of radiopharmaceutical ([4]; Tumor (right thigh muscle)): 0.165 ± 0.048 % ID/g; abdomen uptake ([4]; rabbits, in words): negligible |
